Measurements as given in US20240398784A1, “C-LINKED ISOQUINOLINE AMIDES AS LRRK2 INHIBITORS, PHARMACEUTICAL COMPOSITIONS, AND USES THEREOF” (Merck Sharp & Dohme LLC, priority 2021, published 2024).

Sequences of proteins named here, by UniProt entry; tags and fusion partners are left off.
UniProt Q5S007, whole entry G2019S: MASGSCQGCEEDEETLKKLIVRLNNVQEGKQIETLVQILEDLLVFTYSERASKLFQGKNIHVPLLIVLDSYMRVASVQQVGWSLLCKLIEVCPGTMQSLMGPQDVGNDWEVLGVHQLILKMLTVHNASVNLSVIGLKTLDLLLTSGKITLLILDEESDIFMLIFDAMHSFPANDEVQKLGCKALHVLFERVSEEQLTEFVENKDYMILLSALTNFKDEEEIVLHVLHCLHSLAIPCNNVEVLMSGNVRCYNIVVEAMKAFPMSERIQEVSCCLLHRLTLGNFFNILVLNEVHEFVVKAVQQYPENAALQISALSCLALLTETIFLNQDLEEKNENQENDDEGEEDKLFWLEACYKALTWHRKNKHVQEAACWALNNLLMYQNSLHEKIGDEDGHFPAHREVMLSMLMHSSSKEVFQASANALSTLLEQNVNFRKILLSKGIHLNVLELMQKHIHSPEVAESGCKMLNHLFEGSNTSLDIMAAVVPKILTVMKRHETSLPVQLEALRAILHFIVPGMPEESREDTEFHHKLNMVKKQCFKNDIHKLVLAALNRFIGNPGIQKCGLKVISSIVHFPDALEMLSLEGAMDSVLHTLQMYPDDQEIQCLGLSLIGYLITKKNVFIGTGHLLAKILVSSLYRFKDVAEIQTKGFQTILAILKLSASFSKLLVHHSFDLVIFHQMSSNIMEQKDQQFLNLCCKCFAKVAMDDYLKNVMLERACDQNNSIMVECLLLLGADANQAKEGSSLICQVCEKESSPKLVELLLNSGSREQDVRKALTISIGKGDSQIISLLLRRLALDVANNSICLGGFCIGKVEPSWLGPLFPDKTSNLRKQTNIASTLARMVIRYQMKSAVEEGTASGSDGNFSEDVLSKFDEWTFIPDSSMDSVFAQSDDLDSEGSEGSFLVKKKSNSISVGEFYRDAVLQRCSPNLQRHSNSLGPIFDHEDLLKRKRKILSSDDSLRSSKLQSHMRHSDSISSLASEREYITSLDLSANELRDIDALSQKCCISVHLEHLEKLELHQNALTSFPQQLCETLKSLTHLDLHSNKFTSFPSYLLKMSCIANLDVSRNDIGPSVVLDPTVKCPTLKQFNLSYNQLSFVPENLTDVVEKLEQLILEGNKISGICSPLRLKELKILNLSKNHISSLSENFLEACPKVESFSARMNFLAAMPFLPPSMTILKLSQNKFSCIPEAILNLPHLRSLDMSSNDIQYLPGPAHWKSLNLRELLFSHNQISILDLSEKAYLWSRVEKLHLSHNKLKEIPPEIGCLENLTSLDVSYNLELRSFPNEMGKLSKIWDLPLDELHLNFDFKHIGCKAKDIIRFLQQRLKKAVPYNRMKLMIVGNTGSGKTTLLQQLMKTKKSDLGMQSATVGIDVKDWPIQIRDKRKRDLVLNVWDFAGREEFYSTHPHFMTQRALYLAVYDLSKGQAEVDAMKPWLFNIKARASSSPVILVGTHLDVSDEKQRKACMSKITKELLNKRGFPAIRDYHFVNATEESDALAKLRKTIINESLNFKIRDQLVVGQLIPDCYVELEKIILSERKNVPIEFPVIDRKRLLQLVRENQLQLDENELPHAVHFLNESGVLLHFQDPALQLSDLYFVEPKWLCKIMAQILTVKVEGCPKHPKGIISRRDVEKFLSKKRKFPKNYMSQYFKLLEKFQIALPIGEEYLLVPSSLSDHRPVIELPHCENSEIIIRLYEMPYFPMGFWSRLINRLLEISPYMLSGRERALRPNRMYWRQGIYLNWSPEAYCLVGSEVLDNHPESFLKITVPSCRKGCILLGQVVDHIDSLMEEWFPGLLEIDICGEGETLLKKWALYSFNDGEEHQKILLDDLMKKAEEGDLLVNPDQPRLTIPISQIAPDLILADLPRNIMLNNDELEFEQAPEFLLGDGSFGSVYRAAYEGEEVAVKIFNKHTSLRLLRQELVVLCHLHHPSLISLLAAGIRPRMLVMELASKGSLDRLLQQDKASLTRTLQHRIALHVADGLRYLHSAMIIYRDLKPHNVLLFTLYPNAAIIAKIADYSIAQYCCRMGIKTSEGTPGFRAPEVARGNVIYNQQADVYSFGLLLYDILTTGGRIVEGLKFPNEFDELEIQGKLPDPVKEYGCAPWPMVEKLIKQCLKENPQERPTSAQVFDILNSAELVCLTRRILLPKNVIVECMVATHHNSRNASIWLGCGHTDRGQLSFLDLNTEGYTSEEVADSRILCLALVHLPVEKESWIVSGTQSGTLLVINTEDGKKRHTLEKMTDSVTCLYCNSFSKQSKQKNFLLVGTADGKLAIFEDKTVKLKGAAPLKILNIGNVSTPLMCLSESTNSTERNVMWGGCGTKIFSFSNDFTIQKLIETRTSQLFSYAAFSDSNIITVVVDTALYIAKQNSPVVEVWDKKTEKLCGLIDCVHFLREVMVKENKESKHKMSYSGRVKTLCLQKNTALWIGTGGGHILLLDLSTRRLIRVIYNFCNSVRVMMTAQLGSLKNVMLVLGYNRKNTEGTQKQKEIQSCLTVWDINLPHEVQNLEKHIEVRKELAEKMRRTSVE

molecular target: LRRK2 G2019S (Homo sapiens, UniProt Q5S007, G2019S); assay: LRRK2 G2019S Km ATP LanthaScreen assay; format: biochemical

| Structure (SMILES) | LRRK2 pIC50 |
| --- | --- |
| CC(C(=O)Nc1cc2cc(C3CCN(C4(C)COCC4O)CC3)c(Cl)cc2cn1)C1CC1 (single isomer, unassigned) [Ex-2.103] | 9.00 |
| CC(C(=O)Nc1cc2cc(C3CCN(C4(C)COCC4O)CC3)c(Cl)cc2cn1)C1CCOCC1 (stereo not drawn) | 8.14 |
| CC(C(=O)Nc1cc2cc(C3CCN(C4(C)COCC4O)CC3)c(Cl)cc2cn1)C1CC1 (single isomer, unassigned) [Ex-2.102] | 9.14 |
| CC1CCCC1(C)N1CCC(c2cc3cc(NC(=O)C4CC45CCOCC5)ncc3cc2Cl)CC1 (single isomer, unassigned) [Ex-6.21] | 8.02 |
| CC1(N2CCC(c3cc4cc(NC(=O)C5CC5C(F)F)ncc4cc3Cl)CC2)COCC1O (stereo not drawn) | 7.87 |
| CC1CCCC1(C)N1CCC(c2cc3cc(NC(=O)C4CC45CCOCC5)ncc3cc2Cl)CC1 (single isomer, unassigned) [Ex-6.20] | 7.42 |
